Molecular target: human acetylcholinesterase (Homo sapiens, UniProt P22303)
Assay: Cholinesterase activity determination, modified Ellman method
Format: biochemical
Conditions: read-out: Inhibition of human acetylcholinesterase (apparent IC50); human erythrocyte membranes, acetylthiocholine iodide, pH 7.4, 10 min, room temperature

## CCOC(=O)c1cc(OC(=O)N(C)C)c[n+](C)c1
  IC50: 80 µM
